# Binding of CDR-mutated scFvs to a peptide of the spike HR2 region

Data: MIT Lincoln Laboratory AlphaSeq set, Li et al. 2023, doi:10.1038/s41467-023-39022-2, as distributed in FLAb.

Binding partner: SARS-CoV-2 spike HR2 peptide, sequence PDVDLGDISGINAS.

Parent: Ab-14, a human scFv built as VH, three GGGGS repeats, VL. Only the CDRs of the heavy chain vary.
VH: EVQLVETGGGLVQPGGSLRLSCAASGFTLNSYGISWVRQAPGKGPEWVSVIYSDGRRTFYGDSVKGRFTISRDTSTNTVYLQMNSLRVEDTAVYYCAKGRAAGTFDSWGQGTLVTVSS
VL: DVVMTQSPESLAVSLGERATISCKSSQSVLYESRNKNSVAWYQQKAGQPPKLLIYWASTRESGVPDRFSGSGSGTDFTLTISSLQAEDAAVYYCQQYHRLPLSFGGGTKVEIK

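The starting antibody came from a phage panning campaign against this peptide. The variants were designed computationally from a first round of random CDR variants and then made and measured. Group labels follow the data file (En: ensemble of fine-tuned language models; HC: hill climbing; Gen: genetic algorithm; Gibbs: Gibbs sampling; a sequence that several methods proposed may carry one label only). In AlphaSeq, yeast of one mating type display the scFv and yeast of the other type display the target. The frequency of each diploid, read from paired DNA barcodes, reflects how well the two displayed proteins bind. Scores were corrected for input abundance and mapped to Kd with protein pairs of known affinity run in the same pool. There are six technical replicates.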

Variants are written as CDR1, CDR2 and CDR3 of the heavy chain (limits as in the source). Parent: GFTLNSYGIS, VIYSDGRRTFYGDSVK, GRAAGTFDS.
This list holds designs with more than six substitutions.
Scale: log10 of Kd in nM, estimated from mating counts; low values are strong binders.
Where no diploid with the target was found in that replicate, the entry reads "nd": below detection, most likely a poor binder, though not proof of it.
As a blank, each scFv also met three strains without target: over all heavy chain designs, 1% of these pairings were detected, typically at 2.08 and seldom below 0.84.
In the paper, a design with two or fewer of six values counts as a poor binder.
Values of this round are not directly comparable with the first-round values of the same sequences.
Of ten entries with the parent sequence, four were seen in most replicates (averages 0.34 to 2.37), three in one and three in none, so single entries are noisy.

CDR-H1	CDR-H2	CDR-H3	group	log10 Kd, replicates
GFDLDEYGIS	VIYADGMRKAYADSVK	GNQAGTFDV	En_Gen	-0.39 / -0.57 / -0.57 / -1.15 / -0.48 / -0.40
GFDLDEYGIS	VIYADGGRVSYAQNVK	GLVGKLGVV	En_Gibbs	nd / nd / nd / nd / nd / nd
GFDLDEYGIS	VIYADGMRTAYTDSVK	GNTAGTFDI	En_Gen	-0.19 / -0.43 / -0.51 / -0.32 / 0.37 / 0.01
GFDIEEYGIS	VIYADGIRTSYQNKVK	GRSGGIFNV	En_Gibbs	nd / nd / 0.28 / nd / nd / nd
GFDLNEYGIS	VIYADGVRTAYADDVK	GQNAGTFDL	En_Gen	nd / 1.41 / 1.68 / 0.94 / 1.64 / 1.47
GFDLGEYGIS	VIYADGMRTACKTAVK	GTFSGTLDV	En_Gibbs	nd / nd / nd / nd / nd / nd
GFDLNEYGIS	VIYADGVRSFYADSVK	GQLAGTFDV	En_HC	0.04 / -0.15 / -0.06 / -0.03 / -0.58 / -0.27
GFDLQEYGVS	VIYADGRRAQYASKFK	GNHSGYFDK	En_Gibbs	nd / nd / nd / nd / nd / nd
GFDLNEYGIS	VIYADGKRTAYADDVK	GQNAGTFDI	En_Gen	-0.27 / -0.72 / -0.88 / -0.23 / -0.97 / -0.63
GFNLNEYGIS	VIYADGQRTFYADSVK	GEIAGTFDF	En_HC	-0.03 / 2.36 / -0.57 / 0.13 / 0.37 / -0.27
GFDLNEYGIS	VIYADGKRTYYADSVK	GNQAGTFDI	En_Gen	-0.67 / -0.26 / -0.79 / -0.16 / -0.87 / -0.53
GFDLNEYGIS	VIYADGVRTAYADAVK	GNVAGTFDV	En_Gen	-0.18 / -0.10 / -0.15 / -0.17 / -0.04 / 0.02
GFDLNEYGIS	VIYADGMRTFYTDSVK	GQNAGTFDV	En_Gen	-0.17 / -0.40 / -0.40 / -0.52 / -0.53 / -0.52
GDNINEYGIS	VIYADGLRKQYAENVK	GYLAGTLDE	En_Gibbs	nd / nd / nd / nd / 0.59 / nd
GFDLNEYGIS	VIYADGKRTSYADSVK	GQNAGTFDQ	En_HC	0.46 / 0.07 / 0.01 / -0.20 / 0.30 / 0.07
GQNLDEYGIS	VIYADGMRKWYADDVK	GNMSAGLIA	En_Gibbs	nd / nd / nd / nd / nd / nd
GFNLDEYGIS	VIYADGKRSHYTDKVK	GTVGDFMMV	En_Gibbs	nd / nd / nd / nd / nd / nd
GFDLNEYGIS	VIYADGKRTAYSDSVK	GNTAGTFDM	En_Gen	-0.34 / 0.32 / 0.00 / -0.72 / -0.23 / -0.15
GADIEEYGIS	VIYADGVRKYYVNSFK	GEMAGTFTL	En_Gibbs	nd / nd / nd / nd / nd / nd
GFNLNEYGIS	VIYADGRRTAYADSVK	GGNAGTFDV	En_HC	-0.29 / -0.58 / -0.88 / -0.54 / -0.97 / -0.28
GFDLDEYGIS	VIYADGRRTFYADSVK	GNVAGTFDQ	En_HC	-0.23 / -0.35 / -0.22 / -0.21 / -0.49 / -0.16
GFDLNEYGIS	VIYADGRRTAYADKVK	GNVAGTFDQ	En_Gen	-0.23 / -0.42 / -0.56 / -0.12 / -0.31 / -0.23
GFDLNEYGIS	VIYADGQRTAYIDSVK	GEVAGTFDV	En_Gen	-0.13 / -0.31 / -0.28 / -0.24 / -0.25 / -0.17
GFGLDEYGIS	VIYADGKRASYADNVK	GFNYGVDIL	En_Gibbs	nd / nd / nd / nd / nd / nd
GFDLDEYGIS	VIYADGIRSQYHDSVK	GTGGFTIEA	En_Gibbs	nd / nd / nd / 2.03 / nd / nd
GFDLDEYGIS	VIYADGRRTAYADSVK	GGNAGTFDI	En_Gen	-0.22 / -0.60 / -0.55 / -0.48 / -1.00 / -0.01
GEELDEYGIS	VIYADGRKQSYSDSVK	GAIAGNFDA	En_Gibbs	nd / nd / nd / nd / nd / nd
GFNLNEYGIS	VIYADGYRRAYANSVK	GYNMSLMVT	En_Gibbs	nd / nd / nd / nd / nd / nd
GFDINEYGVS	VIYADGMRSYYQDKVK	GSNGSLFDV	En_Gibbs	nd / nd / nd / nd / nd / nd
GFDINEYGIS	VIYADGMRRAYAQQVK	GHGEVLSMD	En_Gibbs	nd / nd / nd / nd / nd / nd
GFDLTEYGIS	VIYADGQRQEYSDDVK	GQTAGHFLH	En_Gibbs	nd / 2.83 / nd / nd / nd / nd
GFNLEDYGIS	VIYADGRRTFYVDSVK	GKVAGTFDV	En_HC	-0.49 / -0.54 / -0.48 / -0.84 / -0.62 / -0.60
GFDLDEYGIS	VIYADGMRTAYADKVK	GGNAGTFDV	En_Gen	-0.16 / 0.45 / -0.07 / -0.17 / 0.23 / 0.22
GFDLNEYGIS	VIYADGSRTVYADSVK	GNQAGTFDV	En_Gen	-0.18 / -0.25 / -0.23 / -0.32 / 0.02 / -0.15
GADIQEYGIS	VIYADGIRTAYAQNVK	GEYGSQFDE	En_Gibbs	nd / nd / nd / nd / 1.94 / nd
GFSLDEYGIS	VIYADGVRKHYADSVK	GNIIGYYFA	En_Gibbs	nd / nd / nd / nd / nd / nd
GESLLEYGIS	VIYADGSRVAYTNAVK	GNLAGAFDV	En_Gibbs	nd / 1.67 / 2.20 / 1.39 / 1.95 / 1.34
GFDLDEYGIS	VIYADGMRTAYSDSVK	GNVAGTFDI	En_Gen	-0.40 / -0.57 / -0.43 / -0.39 / -0.50 / -0.29

The first 5 entries again:

{"CDR-H1": "GFDLDEYGIS", "CDR-H2": "VIYADGMRKAYADSVK", "CDR-H3": "GNQAGTFDV", "group": "En_Gen", "log10 Kd, replicates": "-0.39 / -0.57 / -0.57 / -1.15 / -0.48 / -0.40"}
{"CDR-H1": "GFDLDEYGIS", "CDR-H2": "VIYADGGRVSYAQNVK", "CDR-H3": "GLVGKLGVV", "group": "En_Gibbs", "log10 Kd, replicates": "nd / nd / nd / nd / nd / nd"}
{"CDR-H1": "GFDLDEYGIS", "CDR-H2": "VIYADGMRTAYTDSVK", "CDR-H3": "GNTAGTFDI", "group": "En_Gen", "log10 Kd, replicates": "-0.19 / -0.43 / -0.51 / -0.32 / 0.37 / 0.01"}
{"CDR-H1": "GFDIEEYGIS", "CDR-H2": "VIYADGIRTSYQNKVK", "CDR-H3": "GRSGGIFNV", "group": "En_Gibbs", "log10 Kd, replicates": "nd / nd / 0.28 / nd / nd / nd"}
{"CDR-H1": "GFDLNEYGIS", "CDR-H2": "VIYADGVRTAYADDVK", "CDR-H3": "GQNAGTFDL", "group": "En_Gen", "log10 Kd, replicates": "nd / 1.41 / 1.68 / 0.94 / 1.64 / 1.47"}